The numbers were not newly measured in article PMC6421297, “Novel Mouse Tauopathy Model for Repetitive Mild Traumatic Brain Injury: Evaluation of Long-Term Effects on Cognition and Biomarker Levels After Therapeutic Inhibition of Tau Phosphorylation” (Frontiers in Neurology, 2019), which cites them from elsewhere.

The data set deals with mice following TBI. Conditions: cited from earlier work.

Take `CC[C@H](CO)Nc1nc(NCc2ccccc2)c2ncn(C(C)C)c2n1` [Roscovitine, (R)-roscovitine]: the “progressive neurodegeneration after TBI” value was “reduced progressive neurodegeneration in the hippocampus and cortex”.
